Read-outs that look alike come from different tables or passages of the source.
Columns and labels:
[1] = In vivo fluorescent imaging after tail vein injection; details: 2 nmole via tail vein, Xenogen IVIS Lumina II
[2] = Protocol: NOD/SCID mice received a single i.v. injection of 40 nmol/Kg of transferrin/EpCAM aptamer with four various structures (TEPP: Bi3 transferrin^+/EpCAM^+; TEPN: transferrin^+/EpCAM^−; TENP: transferrin^−/EpCAM^+; TENN: Bi1 transferrin^−/EpCAM^−). The concentration of aptamers, expressed as % of injected dose (ID) per mg of tissue, in tissues indicated was determined at 30 min and 60 min after the agent administration using ELISA. Data are means±SEM (n=3).
To evaluate the advantage of positive transferrin-modified aptamers over their negative transferrin-modified counterparts in brain uptake, the biodistribution of aptamers with four various structures (transferrin+/EpCAM+, transferrin+/EpCAM−, transferrin−/EpCAM+, transferrin−/EpCAM−) were studied at 30 min and 60 min after a single i.v. injection of these agents at a dosage of 40 nmol/Kg into NOD/SCID mice.

5′-GC GCG GTA C CG CGC TA ACG G AT TCC TTT T CC GT-3′ [aptamer 6]
Fluorescent signal strength [1]: 1.25×10^10
Uptake in brain compared with transferrin−/EpCAM− ([2]; 30 min after administration): statistically significantly higher
Uptake in brain compared with transferrin−/EpCAM− ([2]; 1 h after injection): no gross difference
